The values that follow come from paper PMC5652080.

Substrate in data set [1]: O=C[C@H](O)COP(=O)(O)O
As to the kind of experiment: purified protein. Particulars: active site; 25.0 °C.

Substrate in data set [2]: O=C(CO)COP(=O)(O)O
The experiment in a line: purified protein. The following applies: active site; 25.0 °C.

B1: Triosephosphate isomerase (WT HsTIM) (Homo sapiens) (protein)
chain: APSRKFFVGGNWKMNGRKQSLGELIGTLNAAKVPADTEVVCAPPTAYIDFARQKLDPKIAVAAQNCYKVTNGAFTGEISPGMIKDCGATWVVLGHSERRHVFGESDELIGQKVAHALAEGLGVIACIGEKLDEREAGITEKVVFEQTKVIADNVKDWSKVVLAYEPVWAIGTGKTATPQQAQEVHEKLRGWLKSNVSDAVAQSTRIIYGGSVTGATCKELASQPDVDGFLVGGASLKPEFVDIINAKQ
On to B1, for which, in data set [1], the Km turned out to be 140 ± 10 µM, the kcat came out at 4000 ± 1000 s⁻¹ and the kcat/Km was 2.83e+07 M⁻¹ s⁻¹. Moreover, in data set [2], the Km turned out to be 180 ± 30 µM, the turnover number (kcat) stood at 2.5 s⁻¹ and the kcat/Km is 13800 M⁻¹ s⁻¹.

B2: Triosephosphate isomerase (G233D HsTIM) (Homo sapiens; G233D) (protein)
chain: APSRKFFVGGNWKMNGRKQSLGELIGTLNAAKVPADTEVVCAPPTAYIDFARQKLDPKIAVAAQNCYKVTNGAFTGEISPGMIKDCGATWVVLGHSERRHVFGESDELIGQKVAHALAEGLGVIACIGEKLDEREAGITEKVVFEQTKVIADNVKDWSKVVLAYEPVWAIGTGKTATPQQAQEVHEKLRGWLKSNVSDAVAQSTRIIYGGSVTGATCKELASQPDVDGFLVDGASLKPEFVDIINAKQ
Regarding B2, in data set [1], the Km is 180 ± 50 µM, the kcat amounted to 1070 ± 117 s⁻¹ and the catalytic efficiency (kcat/Km) turned out to be 6e+06 M⁻¹ s⁻¹. In data set [2], the Km turned out to be 130 ± 20 µM, the kcat came out at 2.33 s⁻¹ and the kcat/Km is 18300 M⁻¹ s⁻¹.

For orientation: Km means the concentration of substrate that gives half-maximal velocity. Usually kcat stands for the number of substrate molecules converted per active site and unit of time at saturation. The kcat/Km is the turnover number divided by the Michaelis constant.
